Data published in patent US6331565A, “Dicaffeoylquinic acid for treating hepatitis B and the diseases associated with retrovirus, and the new caffeoylquinic acid derivatives” (Institute of Radiation Medicine Academy of Military Medical …, priority 1996, dated 2001).

Tests used:
HBsAg = type: cell-based, HBV
Procedure: (§1) The cultures were passenged by trypsinization every 4 days.
(§2) HBsAg and HBeAg in the culture medium were determined according to the protocol respectively. The culture medium (200 μl) was absorbed on beads containing antibody to HBsAg/HBeAg in the presence of the conjugate. After overnight incubation, the beads were washed 6 times with […] PBS containing 0.05% Tween-80 and incubated with 200 μl of [^125 I] anti-HBs(Hbe) overnight. The beads were washed 6 times as above. The amounts HBsAg/HBeAg as measure of cpm of [^125 I] labeled immunocomplex was counted on γ-counter.

HBeAg = type: cell-based, HBV
Procedure: as §1, §2

DHBV = test: anti-DHBV test in ducks (serum DHBV DNA dot blot); type: in vivo, DHBV in Peking (Beijing) ducks; settings: 5 mg/kg, P5 (day 5 after withdrawal), X ± SD, n = 7
Procedure: One-day-old ducklings were infected with a 200 μl intravenous injection of DHBV-positive serum containing 10^11 viral genome equivalents per milliliter. Treatment began when ducklings were 7 days old. A total 89 seven-day-old viraemic ducks were distributed at random into five groups. Three groups were administered for 14 days with compound A at the dosage of 5, 12.5, and 50 mg.kg of body weight^-1.day^-1, given orally in two equal (morning and evening) dose dissolved in normal saline (NS). Other two groups were treated with NS and Acyelorvir (ACV) at the dosage of 50 mg.kg of body weight^-1.day^-1 instead of compound A respectively. Post-treatment follow-up was carried over a period of 5 days. Blood samples were obtained repectively from the leg vein of all ducks and stored at -70° C. after serum separation, prior to treatment, weekly during the treatment, and for 5 days after cessation of treatment. They were screened for presence of DHBV DNA by dot blot hybridization.
DHBV DNA in serum was analyzed by molecular hybridization using full length DHBV DNA clones in PB325. The DHBV DNA insert was purified by agarose gel electrophoresis after digestion with EcoRI. The DHBV DNA was radiolabeled with α^32 P-dCTP random oligopriming with Klenow fragment. Dot blot hybridization was carried out by the method of Scotto et al. Briefly, an aliquot (200 μl) serum was spotted onto a nylon membrane (Hybond-N, Amersham International, England) in dot blot manifold and denatured with 0.5 M NaOH--NaCl at room temperature for 30 min. Each spotted sample was neutralized in 1M Tris.HCl-1.5M NaCl (pH8.0). The DNA on the membrane was fixed by heating at 80° C. for 2 h, and prehybridization at 37° C. overnight in 50% formamide, 5×Denhardt's, 6×SSC,[…], 0.5% SDS and 10 mg/ml of calf thymus DNA. Hybridization was initiated by adding DHBV [^32 P] DNA probes at 10^6 cpm/ml at the same prehybridization conditions overnight. The membrane was washed in 3×SSC-0.1% SDS at room temperature, 42° C. and 65° C. for 10 min respectively. After hybridization the membranes were air-dried and exposed for periods of up to 14 days at -70° C. with Kodak film with an enhancer screen. The amount of viral DNA were assayed by both densitometry and image analysis of autoradiographic membranes.

O=C(/C=C/c1ccc(O)c(O)c1)OC1CC(OC(=O)/C=C/c2ccc(O)c(O)c2)(C(=O)O)CC(O)C1O (stereo not drawn) [Compound A, 1,5-di-O-caffeoylquinic acid]
HBsAg cpm (HBsAg; 7.81 μg/ml, day 4): 1032.6 ± 10.8 cpm
HBsAg cpm (HBsAg; 7.81 μg/ml, day 8): 979.3 ± 42.3 cpm
HBsAg cpm (HBsAg; 7.81 μg/ml, day 12): 617.0 ± 27.2 cpm
HBsAg cpm (HBsAg; 15.63 μg/ml, day 4): 941.1 ± 27.2 cpm
HBsAg cpm (HBsAg; 15.63 μg/ml, day 8): 888.9 ± 16.3 cpm
HBsAg cpm (HBsAg; 15.63 μg/ml, day 12): 574.6 ± 18.8 cpm
HBsAg cpm (HBsAg; 31.25 μg/ml, day 4): 824.2 ± 29.7 cpm
HBsAg cpm (HBsAg; 31.25 μg/ml, day 8): 808.5 ± 18.9 cpm
HBsAg cpm (HBsAg; 31.25 μg/ml, day 12): 546.5 ± 8.7 cpm
HBsAg cpm (HBsAg; 62.5 μg/ml, day 4): 717.5 ± 12.2 cpm
HBsAg cpm (HBsAg; 62.5 μg/ml, day 8): 699.7 ± 20.2 cpm
HBsAg cpm (HBsAg; 62.5 μg/ml, day 12): 464.2 ± 7.50 cpm
HBsAg cpm (HBsAg; 125 μg/ml, day 4): 618.5 ± 25.4 cpm
HBsAg cpm (HBsAg; 125 μg/ml, day 8): 617.7 ± 20.6 cpm
HBsAg cpm (HBsAg; 125 μg/ml, day 12): 416.1 ± 14.7 cpm
HBsAg cpm (HBsAg; 250 μg/ml, day 4): 563.5 ± 23.1 cpm
HBsAg cpm (HBsAg; 250 μg/ml, day 8): 480.8 ± 46.5 cpm
HBsAg cpm (HBsAg; 250 μg/ml, day 12): 367.5 ± 6.70 cpm
suppression of HBsAg (HBsAg; 4, 8 and 12 days): marked suppression
HBeAg cpm (HBeAg; 7.81 μg/ml, day 4): 4764.0 ± 212.0 cpm
HBeAg cpm (HBeAg; 7.81 μg/ml, day 8): 7400.7 ± 163.3 cpm
HBeAg cpm (HBeAg; 7.81 μg/ml, day 12): 7188.3 ± 197.5 cpm
HBeAg cpm (HBeAg; 15.63 μg/ml, day 4): 4264.0 ± 192.1 cpm
HBeAg cpm (HBeAg; 15.63 μg/ml, day 8): 5707.0 ± 567.8 cpm
HBeAg cpm (HBeAg; 15.63 μg/ml, day 12): 6211.5 ± 183.3 cpm
HBeAg cpm (HBeAg; 31.25 μg/ml, day 4): 3503.4 ± 328.9 cpm
HBeAg cpm (HBeAg; 31.25 μg/ml, day 8): 4906.8 ± 196.4 cpm
HBeAg cpm (HBeAg; 31.25 μg/ml, day 12): 5991.2 ± 291.9 cpm
HBeAg cpm (HBeAg; 62.5 μg/ml, day 4): 3181.4 ± 181.7 cpm
HBeAg cpm (HBeAg; 62.5 μg/ml, day 8): 4631.7 ± 196.8 cpm
HBeAg cpm (HBeAg; 62.5 μg/ml, day 12): 4603.5 ± 66.76 cpm
HBeAg cpm (HBeAg; 125 μg/ml, day 4): 2867.7 ± 53.8 cpm
HBeAg cpm (HBeAg; 125 μg/ml, day 8): 4052.1 ± 150.6 cpm
HBeAg cpm (HBeAg; 125 μg/ml, day 12): 4014.8 ± 82.8 cpm
HBeAg cpm (HBeAg; 250 μg/ml, day 4): 2034.2 ± 100.3 cpm
HBeAg cpm (HBeAg; 250 μg/ml, day 8): 3081.5 ± 181.7 cpm
HBeAg cpm (HBeAg; 250 μg/ml, day 12): 3025.4 ± 74.0 cpm
suppression of HBeAg (HBeAg; 4, 8 and 12 days): marked suppression
DHBV DNA, grayness of the dot (DHBV): 2.5 ± 1.5 K Grayness

Read-outs that look alike come from different tables or passages of the source.
